Measured values from US20190177410A1 (Regeneron, published 2019).
Residue numbers refer to the chain shown, from its start. Names and notes keep the numbering of the source.

How the values were obtained:
Test in all cases: cell-based or functional assay
[1] = target: T1, full-length human APLNR (hAPLNR) (human, UniProt P35414 1-380)
T1 sequence: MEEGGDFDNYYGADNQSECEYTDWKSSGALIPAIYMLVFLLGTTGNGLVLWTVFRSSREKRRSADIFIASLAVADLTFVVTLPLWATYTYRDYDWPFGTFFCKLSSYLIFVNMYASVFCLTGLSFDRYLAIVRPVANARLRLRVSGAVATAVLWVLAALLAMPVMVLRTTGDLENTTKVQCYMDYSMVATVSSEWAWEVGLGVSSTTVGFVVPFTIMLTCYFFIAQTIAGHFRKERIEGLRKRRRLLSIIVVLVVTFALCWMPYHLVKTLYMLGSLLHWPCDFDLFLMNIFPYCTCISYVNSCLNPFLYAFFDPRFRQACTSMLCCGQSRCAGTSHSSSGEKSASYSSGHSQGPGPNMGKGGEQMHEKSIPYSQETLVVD

[2] = target: T2, human Apelin receptor (hAPLNR) of PathHunter eXpress AGTRL1 CHO-K1 beta-Arrestin cells (human, UniProt P35414 1-380)
T2 sequence: T1 sequence

[3] = target: T1, full-length human APLNR (hAPLNR); remark: listed apart in the source
[4] = target: T1, full-length human APLNR (hAPLNR); remark: listed apart in the source
[5] = target: T1, full-length human APLNR (hAPLNR); remark: listed apart in the source

B1: H4H9093P-APNV5-11-(G4S)3 (antibody)
VH: GKPIPNPLLGLDSTQRPRLSHKGPMGGGGSGGGGSGGGGSEVQLVESGGGLVKPGGSLRLSCAASGITFSNAWMSWVRQAPGKGLEWVGRFKGKADGGTVDYAAPVKGRFTISRDDSKNTLYLQMNSLKNEDTAVYYCTTGRITMVRGVLGYWGQGTLVTVSS
VL: not shown
B1 was tested, and the “% Activation at 100 nM mAb (7.5 uM Forskolin), CRE-luc” value [1] was 100%, the “% Activation at 500 nM antibody or Apelin-antibody fusion, PathHunter beta-Arrestin assay” value [2] was 47% and the “EC50 [M], PathHunter beta-Arrestin assay” value [2] was > 1e-07 M.

B2: H4H9093P-3-NVH3 (antibody, V domains shown)
VH: EVQLVESGGGLVKPGGSLRLSCAASGITFSNAWMSWVRQAPGKGLEWVGRFKGKADGGTVDYAAPVKGRFTISRDDSKNTLYLQMNSLKNEDTAVYYCTTGRITMVRGVLGYWGQGTLVTVSS
VL: not shown
For B2, the “% Activation at 100 nM mAb (7.5 uM Forskolin), CRE-luc” value [1] was 100% and the “Activating EC50 (M), ratio of pERK1/2 to total ERK1/2, CHO/hAPLNR cells” value [3] was 5.42e-10 M.

B3: H4H9093P-APN9-(G4S)3 (antibody, V domains shown)
VH: B2 VH
VL: not shown
B3 was tested, and the “% Inhibition at 100 nM mAb, in the presence of 100 pM Apelin (at 7.5 uM Forskolin), CRE-luc” value (from here on “% Inhibition at 100 nM mAb”) [4] was 27% and the “EC50 [M], PathHunter beta-Arrestin assay” value [2] was 8.3e-09 M.

B4: H4H9093P-APN11+S-(G4S)3 (antibody, V domains shown)
VH: B2 VH
VL: not shown
With B4 the “% Activation at 100 nM mAb (7.5 uM Forskolin), CRE-luc” value [1] was 100% and the “EC50 [M] (7.5 uM Forskolin), CRE-luc” value [1] was 9.2e-11 M.

B5: H4H9093P-APN10-(G4S)3 (antibody, V domains shown)
VH: B2 VH
VL: not shown
In the case of B5, the “% Activation at 100 nM mAb (7.5 uM Forskolin), CRE-luc” value [1] is reported as 50% and the “% Inhibition at 100 nM mAb” value [4] is reported as 15%.

B6: H4H9093P-APN11-(G4S)3 (antibody, V domains shown)
VH: B2 VH
VL: not shown
B6 was tested, and the “% Activation at 100 nM mAb (7.5 uM Forskolin), CRE-luc” value [1] was 100%.

B7: H4H9092P-1-NVH3 (antibody, V domains shown)
VH: B2 VH with F51I, G53S, A55V, V60I, N90T
VL: not shown
In the case of B7, the “% Activation at 100 nM mAb (10 uM Forskolin), CRE-luc” value [5] is reported as 100%.

B8: H4H9209N-4-NVH3 (antibody, V domains shown)
VH: EVQLLESGGGLVQPGGSLRLSCAASGFTFSNYAMNWVRQAPGRGLEWVSAIHYDGSNSYYADSVKGRFTISRDNSKNTLYLQMNSLRAEDTAIYYCAILSRVYWGQGTLVTVSS
VL: DIQMTQSPSSLSASVGDRVTITCRASQGINNYLAWFQQKPGKAPKSLIYATSSLQSGVPSKFSGSGSGTDFTLTISSLQPEDFATYYCQQYNSYPLTFGGGTKVEIK
With B8 the “% Activation at 100 nM mAb (7.5 uM Forskolin), CRE-luc” value [1] was 100%.

B9: H4H9209N-APN11-(G4S)3 (antibody, V domains shown)
VH: B8 VH
VL: B8 VL
In the case of B9, the “% Activation at 100 nM mAb (7.5 uM Forskolin), CRE-luc” value [1] is reported as 100% and the “EC50 [M] (7.5 uM Forskolin), CRE-luc” value [1] is reported as 2.7e-11 M.

B10: H4H9209N-APN9-(G4S)3 (antibody, V domains shown)
VH: B8 VH
VL: B8 VL
B10 was tested, and the “% Inhibition at 100 nM mAb” value [4] was 14%.

B11: H4H9209N-APN11+S-(G4S)3 (antibody, V domains shown)
VH: B8 VH
VL: B8 VL
In the case of B11, the “% Activation at 100 nM mAb (7.5 uM Forskolin), CRE-luc” value [1] is reported as 100%.
